The list shows a part of the results, in another mix than the full data. Some tests of the compounds listed are not included; inactive here does not mean inactive elsewhere. Calls of active or inactive are those of the source. Cut-off read from the data, not from the text of the source: active = activation above about 18%; inactive = the rest.

Protein sequences, listed by entry. Tags and fused reporters are not part of them.
UniProt P35372, whole entry, looked up: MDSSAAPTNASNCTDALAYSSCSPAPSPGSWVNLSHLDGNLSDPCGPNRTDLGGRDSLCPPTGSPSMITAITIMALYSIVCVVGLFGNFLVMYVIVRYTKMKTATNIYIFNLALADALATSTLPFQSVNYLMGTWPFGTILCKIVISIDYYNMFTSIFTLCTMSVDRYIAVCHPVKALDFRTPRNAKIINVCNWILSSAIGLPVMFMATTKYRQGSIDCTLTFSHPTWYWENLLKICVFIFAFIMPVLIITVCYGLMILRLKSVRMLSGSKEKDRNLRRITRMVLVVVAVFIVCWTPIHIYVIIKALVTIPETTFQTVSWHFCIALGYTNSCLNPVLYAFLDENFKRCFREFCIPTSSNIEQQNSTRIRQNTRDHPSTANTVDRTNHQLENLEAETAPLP
UniProt P41143, whole entry, looked up: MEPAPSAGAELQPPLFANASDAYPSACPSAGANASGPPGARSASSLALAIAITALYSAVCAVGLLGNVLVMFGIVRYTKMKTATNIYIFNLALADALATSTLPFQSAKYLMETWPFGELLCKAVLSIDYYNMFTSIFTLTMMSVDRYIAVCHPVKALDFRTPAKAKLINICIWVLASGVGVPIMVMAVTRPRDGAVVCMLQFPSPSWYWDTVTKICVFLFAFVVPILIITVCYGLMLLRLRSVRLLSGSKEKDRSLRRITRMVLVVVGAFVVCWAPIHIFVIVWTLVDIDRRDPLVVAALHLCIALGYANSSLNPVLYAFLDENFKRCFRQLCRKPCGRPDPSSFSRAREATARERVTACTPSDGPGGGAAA

The target of this assay is Mu-type opioid receptor (Homo sapiens) + Delta-type opioid receptor (Homo sapiens) (UniProt P35372+P41143). The experiment in a line: inducers of mu-delta opioid receptor heterodimers – cell-based, luminescence, primary screen (AID 504326).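 Note: 0% = vehicle-treated cells and 100% = reference agonist.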 Conditions: cells, OPRM1-OPRD1 heterodimerization, at 9.3 µM, stronger effect = higher value.
Regarding `O=C(OC1CN2CCC1CC2)C(CO)(c1ccccc1)c1ccccc1` (stereo not drawn), the activation was inactive: -0.47%. In the case of `CC(C)Oc1ccc(C(=O)NCC2(N(C)C)CCCCC2)cc1`, the activation was inactive: 10.2%. Under `O=C(OCCN1CCCC1)C(O)(c1ccccc1)c1ccccc1` stands inactive: -1.11%; under `CN(C)c1cccc(C(=O)NCC2(N(C)C)CCCCC2)c1`, inactive: 5.28%; under `COc1ccc(Br)c(C(=O)NCC2(N3CCCCC3)CCCCC2)c1`, inactive: -1.44%. The same measure for `COc1cc(C(=O)NCC2(N(C)C)CCCCC2)c([N+](=O)[O-])cc1OC`: inactive: -1%. Under `O=C(NCC1(N2CCCCC2)CCCCC1)c1cccc(Cl)c1` stands inactive: 0.58%; under `COc1cccc(C(=O)NCC2(N3CCCCC3)CCCCC2)c1`, inactive: -1.96%. `COc1ccc(Cl)cc1C(=O)NCC1(N(C)C)CCCCC1`: the activation was inactive: -2.92%. Under `Cc1ccccc1C(=O)NCC1(N2CCCCC2)CCCCC1` stands inactive: -2.29%; under `CN(C)C1CCCC1OC(=O)C(O)(c1ccccc1)c1ccccc1` (stereo not drawn), inactive: -1.04%.

On to `COc1ccc(C(=O)NCC2(N(C)C)CCCCC2)cc1`, for which the activation was inactive: 3.78%. The same measure for `CCN1CCCC(OC(=O)C2(O)c3ccccc3C=Cc3ccccc32)C1` (stereo not drawn): inactive: -2.12%. Under `Cc1cc(C(=O)NCC2(N3CCCCC3)CCCCC2)ccc1[N+](=O)[O-]` stands inactive: -1.63%; under `O=C(NCC1(N2CCCCC2)CCCCC1)c1cccc(Br)c1`, inactive: -2.12%; under `C=CCN1CCN(CCOC(=O)C(O)(c2ccccc2)c2ccccc2)CC1`, inactive: 0.81%. `O=C(NCC1(N2CCCCC2)CCCCC1)c1cc(F)c(F)cc1Cl`: the activation is inactive: -1.04%. Under `CN1[C@@H]2CC[C@H]1CC(OC(=O)C(O)(c1ccccc1)c1ccccc1)C2` (stereo partly drawn) stands inactive: -2.16%; under `O=C(NCC1(N2CCCCC2)CCCCC1)c1cc([N+](=O)[O-])ccc1Cl`, inactive: 0.65%; under `Cc1ccc(C(=O)NCC2(N3CCCCC3)CCCCC2)cc1`, inactive: 0.42%.

Take `CCN(CC)CC(C)C(C)OC(=O)C(O)(c1ccccc1)c1ccccc1` (stereo not drawn): the activation was inactive: 0.95%. Under `COc1cc(SC)ccc1C(=O)NCC1(N(C)C)CCCCC1` stands inactive: -1.44%. Under `CC(C)N1C(=O)CC2(CCN(CCOC(=O)C(O)(c3ccccc3)c3ccccc3)CC2)C1=O` stands inactive: 1%.

(Values after PubChem BioAssay AID504326 (The Scripps Research Institute Molecular Screening Center, 2011).)
